Literature values in patent US9173884B2, “Inhibitors of phosphodiesterase 11 (PDE11)” (TRUSTEES OF BOSTON COLLEGE, priority 2011, dated 2015).

Target: PDE11 (Homo sapiens (Human), UniProt Q9HCR9)
Settings: reference 22; cited from earlier work

SMILES: CN1CC(=O)N2[C@H](c3ccc4c(c3)OCO4)c3[nH]c4ccccc4c3C[C@@H]2C1=O [Tadalafil]
- activity against PDE11: significant activity
